Literature values as cited in patent US20180008551A1, “METALLIC AND PROTEIN/POLYMER NANOPARTICLE CONSTRUCTS, MULTI-DRUG VEHICLE AND FABRICATION METHODS” (The Curators of the University of Missouri, priority 2016, published 2018).
Converted amounts (≈) assume the structure as drawn.

CC1(C)C(/C=C/C=C/C=C/C=C2\N(CCCCS(=O)(=O)O)c3ccc4ccccc4c3C2(C)C)=[N+](CCCCS(=O)(=O)[O-])c2ccc3ccccc3c21 [Indocyanine Green]
water solubility limit: 2000 µg/mL (≈ 2660 µM)
